Measured values from patent US20120282285A1 (RIGSHOSPITALET, published 2012).

Biological target: T1, MBL/Ficolin associated protein-1 (MAP-1) (human, UniProt P48740 20-363, N-glycosylated (shift from ~45 kDa to ~40 kDa with N-glycosidase F); two potential glycosylation sites at positions 49 and 178 of SEQ ID NO:1)
T1 construct: Signal peptide is residues 1-19; also called FAP; rMAP-1
T1 sequence: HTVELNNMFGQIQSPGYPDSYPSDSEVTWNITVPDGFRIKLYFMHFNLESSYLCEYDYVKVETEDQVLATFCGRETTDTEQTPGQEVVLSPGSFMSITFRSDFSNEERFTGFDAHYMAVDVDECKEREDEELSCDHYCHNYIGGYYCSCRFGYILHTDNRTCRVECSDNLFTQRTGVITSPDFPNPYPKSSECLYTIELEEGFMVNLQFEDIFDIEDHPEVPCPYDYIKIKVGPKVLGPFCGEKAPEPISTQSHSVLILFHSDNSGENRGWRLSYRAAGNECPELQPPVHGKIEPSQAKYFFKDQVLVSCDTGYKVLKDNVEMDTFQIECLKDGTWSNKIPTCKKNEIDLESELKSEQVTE
Test: sandwich ELISA on 100 donor sera, capture mAb 20C4, detection FCN-219
Description: The relative association between MAP-1 and MBL, Ficolin-2 and -3 was assessed essentially as described previously (Skjoedt et al., 2009) with the modification that the MAP-1 specific mAb 20C4 was used as capture antibody (coated at 6 μg/ml). […] The serum samples from the same 100 Danish blood donors as above were analyzed.
We analyzed the same 100 donor serum samples as used for the MAP-1 determinations and assessed the serum association levels between MAP-1 and Ficolin-2, -3 and MBL given as relative O.D. 490-650 nm (FIG. 30A). In addition we measured the serum concentration of MBL, Ficolin-2 and -3 as previously (Skjoedt et al., 2009).

binding result: binds
B1: Ficolin-2 (other, human, UniProt Q15485 26-313, looked up)
chain: LQAADTCPEVKMVGLEGSDKLTILRGCPGLPGAPGPKGEAGTNGKRGERGPPGPPGKAGPPGPNGAPGEPQPCLTGPRTCKDLLDRGHFLSGWHTIYLPDCRPLTVLCDMDTDGGGWTVFQRRVDGSVDFYRDWATYKQGFGSRLGEFWLGNDNIHALTAQGTSELRVDLVDFEDNYQFAKYRSFKVADEAEKYNLVLGAFVEGSAGDSLTFHNNQSFSTKDQDNDLNTGNCAVMFQGAWWYKNCHVSNLNGRYLRGTHGSFANGINWKSGKGYNYSYKVSEMKVRPA
notes: Serum protein
